From PubChem BioAssay AID2546 (National Center for Advancing Translational Sciences (NCATS), 2010) come the findings set out here.

This is a selection; strong and weak results do not stand in their true shares. Records with an inconclusive call do not appear. Active and inactive are the calls of the source. Calls follow the shape of the dose curve; as a rule, active = well fitted inhibition curve with a large enough effect; inconclusive = small, poorly fitted or top-dose-only effect, or effect the other way; inactive = flat fitted curve, though single readings scatter.
Potency is read from the fitted curve at half-maximal effect.

A short description of the assay: VP16 counterscreen qHTS for inhibitors of ROR gamma transcriptional activity.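 Also: Gal4-VP16 expression switched on by copper sulfate through the metallothionein promoter; nearly all actives have a fitted effect of over 50% in size.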 The note with it: Drosophila S2 Gal4-VP16 UAS-luciferase, luminescence, 20 h. The source says:
NIH Molecular Libraries Probe Production Network [MLPCN]
NIH Chemical Genomics Center [NCGC]
Assay Provider: Dan Littman, New York University
The retinoic acid-related orphan receptor (ROR) gamma is a transcription factor that has a central role in the differentiation of Th17 cells, a subset of T helper cells that secrete the inflammatory cytokines IL-17, IL-17F, and IL-22. Th17 cells have been implicated in graft versus host disease, autoimmune disease and asthma. ROR gamma is induced in naive T helper cells in the presence of TGF-beta combined with IL-6, IL-21, or IL-23, and thereafter directs the expression of the Th17 lineage cytokines. […] Small molecule inhibitors that inhibit components common to the RORgt and VP16 assays, such as the Gal4 DNA binding domain or the UAS luciferase reporter, will be active in both assays and thus scored as nonspecific.
For screening, 600 cells in 4 uL/well were dispensed into white solid 1536-well plates (Grenier) using a solenoid-based dispenser. […] After addition of 1.5 uL Photinus luciferase detection reagent, the plates were incubated 10 min at ambient temperature and then read by a ViewLux (Perkin Elmer) to detect luminescence.
(In general: A counterscreen serves to expose hits that act by an unwanted route or on another target.)
As to `CC[n+]1c(/C=C/N(C)c2ccccc2)oc2ccccc21`, the Potency is active: 11.2 µM.
As for `CC[n+]1c(/C=C/N(C)c2ccccc2)oc2ccc(Cl)cc21`, the figure is active: 4.47 µM.
